Molecular target: ERβ (Homo sapiens, UniProt Q92731)
Experiment: ThermoFluor thermal shift assay, ERβ
Assay type: binding
Conditions: pH 8, read-out: ΔTm, thermal stabilization of ERβ

The chains behind the UniProt entries cited, without tags or fusion partners.
UniProt Q92731, whole entry, species assumed: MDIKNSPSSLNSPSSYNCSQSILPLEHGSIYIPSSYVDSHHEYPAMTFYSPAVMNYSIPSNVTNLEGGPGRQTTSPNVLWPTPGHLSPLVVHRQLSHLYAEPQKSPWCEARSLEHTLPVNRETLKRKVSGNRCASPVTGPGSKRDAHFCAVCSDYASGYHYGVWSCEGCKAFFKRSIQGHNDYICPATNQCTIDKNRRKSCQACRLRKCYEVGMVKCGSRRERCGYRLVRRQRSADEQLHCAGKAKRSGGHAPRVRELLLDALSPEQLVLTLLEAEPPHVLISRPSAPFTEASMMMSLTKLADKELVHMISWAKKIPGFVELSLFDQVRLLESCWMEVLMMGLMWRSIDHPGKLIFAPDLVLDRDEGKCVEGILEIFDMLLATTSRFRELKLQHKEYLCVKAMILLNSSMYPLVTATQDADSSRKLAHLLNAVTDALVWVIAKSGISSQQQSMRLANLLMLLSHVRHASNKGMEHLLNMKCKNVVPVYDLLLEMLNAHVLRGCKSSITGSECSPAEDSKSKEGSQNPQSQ

ΔTm at 100 µM: 18.9 °C
Structure (SMILES): CC/C(=C(/CC)c1ccc(O)cc1)c1ccc(O)cc1 [DES, di-ethylstilbestrol]

Source: patent publication US7655756B2 (Johnson & Johnson Pharmaceutical Research & Development, LLC, priority 2005, dated 2010)
